Activity calls are given as the source filed them.
Experiments:
Assay type in all cases: functional, organism-based
Conditions in all cases: time 5.0 day
[1] = target: T1, Bile acid receptor (Mus musculus) (UniProt Q60641); test: In vivo activation of FXR in male ICR mouse assessed as upregulation of FXR mRNA expression in liver at 10 mg/kg, po administered via oral gavage for 5 days by RT-PCR analysis
T1 sequence (whole entry): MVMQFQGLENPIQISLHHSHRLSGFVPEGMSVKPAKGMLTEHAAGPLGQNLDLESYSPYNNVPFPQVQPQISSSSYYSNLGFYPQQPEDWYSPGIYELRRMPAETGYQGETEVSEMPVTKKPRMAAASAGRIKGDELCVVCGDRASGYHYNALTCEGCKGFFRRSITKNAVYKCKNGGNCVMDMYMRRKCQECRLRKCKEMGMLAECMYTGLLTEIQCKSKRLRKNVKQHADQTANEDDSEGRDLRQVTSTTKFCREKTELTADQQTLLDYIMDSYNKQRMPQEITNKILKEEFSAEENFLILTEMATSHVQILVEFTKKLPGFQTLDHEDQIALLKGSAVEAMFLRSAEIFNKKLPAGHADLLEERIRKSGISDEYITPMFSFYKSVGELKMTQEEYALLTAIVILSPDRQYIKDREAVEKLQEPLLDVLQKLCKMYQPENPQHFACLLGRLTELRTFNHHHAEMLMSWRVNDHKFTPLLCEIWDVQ

[2] = target: T1, Bile acid receptor (Mus musculus); test: In vivo activation of FXR in male ICR mouse assessed as upregulation of FGF15 mRNA expression in ileum at 10 mg/kg, po administered via oral gavage for 5 days by RT-PCR analysis
[3] = target: T1, Bile acid receptor (Mus musculus); test: In vivo activation of FXR in male ICR mouse assessed as upregulation of SHP mRNA expression in liver at 10 mg/kg, po administered via oral gavage for 5 days by RT-PCR analysis
[4] = target: T1, Bile acid receptor (Mus musculus); test: In vivo activation of FXR in male ICR mouse assessed as upregulation of BSEP mRNA expression in liver at 10 mg/kg, po administered via oral gavage for 5 days by RT-PCR analysis
[5] = target: T1, Bile acid receptor (Mus musculus); test: In vivo activation of FXR in male ICR mouse assessed as upregulation of FXR mRNA expression in ileum at 10 mg/kg, po administered via oral gavage for 5 days by RT-PCR analysis
[6] = target: T1, Bile acid receptor (Mus musculus); test: In vivo activation of FXR in male ICR mouse assessed as upregulation of OSTbeta mRNA expression in liver at 10 mg/kg, po administered via oral gavage for 5 days by RT-PCR analysis
[7] = target: T1, Bile acid receptor (Mus musculus); test: In vivo activation of FXR in male ICR mouse assessed as upregulation of OSTbeta mRNA expression in ileum at 10 mg/kg, po administered via oral gavage for 5 days by RT-PCR analysis
[8] = target: T1, Bile acid receptor (Mus musculus); test: In vivo activation of FXR in male ICR mouse assessed as upregulation of SHP mRNA expression in ileum at 10 mg/kg, po administered via oral gavage for 5 days by RT-PCR analysis

Measured: Activity

CC(C)c1onc(-c2ccccc2OC(F)(F)F)c1CN1CCC(COc2ccc(C(=O)O)cc2)CC1
active: all assays above
